{"source": "patent US5591734A", "about": "“17-(3-furyl)-5β, 14β-androstane derivatives active on the cardiovascular system, processes for their preparation and pharmaceutical compositions containing same” (Sigma-Tau Industrie Farmaceutiche Riunite S.p.A., priority 1992, dated 1997)", "tested_on": "spontaneous hypertensive rats of the Milan (MHS)", "experiment": "antihypertensive activity in spontaneous hypertensive rats (MHS), indirect tail-cuff method", "format": "in vivo, rat", "conditions": "10 mg/Kg/os daily for ten days in Methocel 0.5% w/v; 7 rats; controls 172 +/- 2.0", "data": [{"compound": "C[C@]12CC[C@H](O)C[C@H]1CC[C@@H]1[C@@H]2CC[C@]2(C)[C@@](O)(C3=CC(=O)OC3)CC[C@]12O", "note": "[Ref. Comp., 3β,14β,17α-trihydroxy-5β-card-20(22)-enolide, reference compound]", "values": [{"measurement": "SBP (SYSTOLIC BLOOD PRESSURE FALL IN SPONTANEOUS HYPERTENSIVE RATS (MHS))", "value": "171 +/- 1.9 mm Hg"}]}]}
